ChEMBL document CHEMBL4706531, “Discovery of Novel c-Mesenchymal-Epithelia transition factor and histone deacetylase dual inhibitors” (Eur J Med Chem, 2020)

Amino acid sequences for entries named in this document (tags omitted). A change or cut given only in a name is not applied to a line headed by its entry.
UniProt Q13547, whole entry: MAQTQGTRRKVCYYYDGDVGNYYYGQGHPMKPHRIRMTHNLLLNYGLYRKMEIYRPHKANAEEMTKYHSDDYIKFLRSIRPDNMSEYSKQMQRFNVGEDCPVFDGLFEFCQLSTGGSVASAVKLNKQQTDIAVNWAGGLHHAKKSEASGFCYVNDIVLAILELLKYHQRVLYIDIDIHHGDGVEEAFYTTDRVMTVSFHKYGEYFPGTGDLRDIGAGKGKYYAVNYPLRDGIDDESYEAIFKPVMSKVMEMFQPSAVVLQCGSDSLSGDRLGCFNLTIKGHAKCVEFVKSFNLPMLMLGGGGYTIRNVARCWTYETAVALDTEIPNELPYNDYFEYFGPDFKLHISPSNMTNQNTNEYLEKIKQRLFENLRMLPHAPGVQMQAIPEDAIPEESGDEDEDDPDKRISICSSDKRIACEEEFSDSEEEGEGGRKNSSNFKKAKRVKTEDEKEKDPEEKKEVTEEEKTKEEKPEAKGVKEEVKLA
UniProt P08581: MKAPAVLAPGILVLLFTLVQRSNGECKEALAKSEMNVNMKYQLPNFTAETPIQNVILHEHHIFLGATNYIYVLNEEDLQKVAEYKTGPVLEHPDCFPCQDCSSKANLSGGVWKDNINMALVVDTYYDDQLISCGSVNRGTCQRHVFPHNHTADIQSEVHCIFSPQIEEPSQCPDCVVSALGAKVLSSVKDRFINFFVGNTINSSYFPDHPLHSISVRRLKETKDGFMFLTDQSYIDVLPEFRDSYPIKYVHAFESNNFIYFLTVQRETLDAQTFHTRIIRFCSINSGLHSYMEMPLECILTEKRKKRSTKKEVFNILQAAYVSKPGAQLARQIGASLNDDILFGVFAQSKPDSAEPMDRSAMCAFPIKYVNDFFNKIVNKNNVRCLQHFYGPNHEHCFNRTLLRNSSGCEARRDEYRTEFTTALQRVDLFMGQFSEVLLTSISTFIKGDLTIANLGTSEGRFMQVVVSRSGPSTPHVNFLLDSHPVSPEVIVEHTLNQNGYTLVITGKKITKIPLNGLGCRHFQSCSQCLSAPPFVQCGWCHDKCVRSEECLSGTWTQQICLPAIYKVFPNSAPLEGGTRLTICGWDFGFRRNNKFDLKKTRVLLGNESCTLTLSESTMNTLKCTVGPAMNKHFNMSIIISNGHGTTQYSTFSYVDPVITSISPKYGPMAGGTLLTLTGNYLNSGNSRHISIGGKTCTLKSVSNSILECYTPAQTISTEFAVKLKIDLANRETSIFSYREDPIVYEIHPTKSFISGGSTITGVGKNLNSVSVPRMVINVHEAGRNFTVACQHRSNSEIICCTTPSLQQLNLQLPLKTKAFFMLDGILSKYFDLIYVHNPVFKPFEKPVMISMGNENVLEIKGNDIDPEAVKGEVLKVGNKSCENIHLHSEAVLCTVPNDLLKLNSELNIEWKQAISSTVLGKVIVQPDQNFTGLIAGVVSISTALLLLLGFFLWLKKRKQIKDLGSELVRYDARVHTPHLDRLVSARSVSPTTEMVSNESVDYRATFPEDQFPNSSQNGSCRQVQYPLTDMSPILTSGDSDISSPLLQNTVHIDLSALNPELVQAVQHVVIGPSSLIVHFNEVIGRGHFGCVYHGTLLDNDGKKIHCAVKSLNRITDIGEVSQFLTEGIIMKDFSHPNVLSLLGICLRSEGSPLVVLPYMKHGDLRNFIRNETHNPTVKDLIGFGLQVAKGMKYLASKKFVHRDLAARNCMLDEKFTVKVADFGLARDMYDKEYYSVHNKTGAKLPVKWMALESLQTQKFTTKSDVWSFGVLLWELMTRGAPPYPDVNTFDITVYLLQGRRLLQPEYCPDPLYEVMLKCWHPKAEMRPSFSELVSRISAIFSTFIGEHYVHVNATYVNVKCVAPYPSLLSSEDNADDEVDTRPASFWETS

What was measured:
Histone deacetylase 1 = Histone deacetylase 1 (Homo sapiens, UniProt Q13547); conditions: Sf9, dose 100.0 nM, time 75.0 min
[1] = target: Hepatocyte growth factor receptor (Homo sapiens, UniProt P08581); conditions: dose 100.0 nM, time 10.0 min

inhibition (Histone deacetylase 1): 88%
inhibition [1]: 96.3%
SMILES: COc1cc2c(Oc3ccc(NC(=O)c4nn(-c5ccccc5)ccc4=O)cc3)ccnc2cc1OCCCCCCC(=O)NO
